Among the data in patent publication US9611261B2 (AMGEN INC., priority 2013, dated 2017) are IC50 values, retold here.

pIC50: −log10 of the molar value. Structures can show the parent of a compound that is named as a salt.

The test system of the experiment is Aβ 40 in conditioned medium of cells stably expressing Amyloid Precursor Protein (APP). The experiment can be described thus: In vitro BACE cell-based assay (Aβ 40 sandwich ELISA of conditioned medium). The note with it: read-out: BACE cell assay IC50.
By pIC50 is commonly meant the IC50 on a negative log10 scale, so that one unit is a factor of ten. Take `NC1=N[C@@](CF)(c2cc(NC(=O)c3ccc(Cl)cn3)ccc2Cl)[C@@H]2CC2O1` (mixture of isomers) [Example 276, N-(3-(((1R,S), (5S,R), (6R,S))-3-amino-5-(fluoromethyl)-2-oxa-4-azabicyclo[4.1.0]hept-3-en-5-yl)-4-chlorophenyl)-5-chloropicolinamide]: the pIC50 is 7.62.

Take `N#Cc1ccc2c(c1)OCC[C@@H]2Nc1ccc(F)c([C@@]2(C(F)F)N=C(N)O[C@@H]3C[C@@H]32)c1` (mixture of isomers) [Example 383, (R)-4-((3-((1R,5S,6R)-3-amino-5-(difluoromethyl)-2-oxa-4-azabicyclo[4.1.0]hept-3-en-5-yl)-4-fluorophenyl)amino)chroman-7-carbonitrile and (S)-4-((3-((1R,5S,6R)-3-amino-5-(difluoromethyl)-2-oxa-4-azabicyclo[4.1.0]hept-3-en-5-yl)-4-fluorophenyl)amino)chroman-7-carbonitrile]: the pIC50 was 6.45.

In the case of `N#Cc1cnc2c(c1)CCC[C@@H]2Nc1ccc(F)c([C@@]2(C(F)F)N=C(N)O[C@@H]3C[C@@H]32)c1` (mixture of isomers) [Example 403, (R)-8-((3-((1R,5S,6R)-3-amino-5-(difluoromethyl)-2-oxa-4-azabicyclo[4.1.0]hept-3-en-5-yl)-4-fluorophenyl)amino)-5,6,7,8-tetrahydroquinoline-3-carbonitrile and (S)-8-((3-((1R,5S,6R)-3-amino-5-(difluoromethyl)-2-oxa-4-azabicyclo[4.1.0]hept-3-en-5-yl)-4-fluorophenyl)amino)-5,6,7,8-tetrahydroquinoline-3-carbonitrile], the pIC50 was 6.17.

Regarding `Cc1cc(C#N)cnc1C(=O)Nc1cc(F)c(Cl)c([C@]2(CF)N=C(N)O[C@H]3C[C@H]32)c1` (racemic) [Example 137, N-(3-((1R/S,5S/R,6R/S)-3-amino-5-(fluoromethyl)-2-oxa-4-azabicyclo[4.1.0]hept-3-en-5-yl)-4-chloro-5-fluorophenyl)-5-cyano-3-methylpicolinamide], the pIC50 was 7.79.

For `C#CCOc1cnc(C(=O)Nc2cc(F)c(Cl)c([C@]3(CF)N=C(N)O[C@H]4C[C@H]43)c2)cn1` (racemic) [Example 140, N-(3-((1R/S,5S/R,6R/S)-3-amino-5-(fluoromethyl)-2-oxa-4-azabicyclo[4.1.0]hept-3-en-5-yl)-4-chloro-5-fluorophenyl)-5-(prop-2-yn-1-yloxy)pyrazine-2-carboxamide], the pIC50 is 8.23.

For `NC1=N[C@](c2cc(NC(=O)c3nn(C(F)F)cc3Cl)ccc2Cl)(C(F)F)[C@@H]2C[C@@H]2O1` (racemic) [Example 220, N-(3-((1(R,S),5(S,R),6(R,S))-3-amino-5-(difluoromethyl)-2-oxa-4-azabicyclo[4.1.0]hept-3-en-5-yl)-4-chlorophenyl)-4-chloro-1-(difluoromethyl)-1H-pyrazole-3-carboxamide], the pIC50 was 7.77.

For the compound `Cc1cc(C#N)cnc1C(=O)Nc1cc(F)c(Cl)c([C@]2(CF)N=C(N)O[C@H]3C[C@H]32)c1` [Example 139, N-(3-((1S,5R,6S)-3-amino-5-(fluoromethyl)-2-oxa-4-azabicyclo[4.1.0]hept-3-en-5-yl)-4-chloro-5-fluorophenyl)-5-cyano-3-methylpicolinamide], the pIC50 is 5.65.

Regarding `NC1=N[C@](c2cc(NC(=O)c3nn(C(F)F)cc3Cl)ccc2Cl)(C(F)F)[C@@H]2C[C@@H]2O1` [Example 225, N-(3-((1S,5R,6S)-3-amino-5-(difluoromethyl)-2-oxa-4-azabicyclo[4.1.0]hept-3-en-5-yl)-4-chlorophenyl)-4-chloro-1-(difluoromethyl)-1H-pyrazole-3-carboxamide], the pIC50 was 5.42.

For the compound `NC1=N[C@@](c2cccc(NC(=O)c3ccc(Cl)cn3)c2)(C(F)F)[C@H]2C[C@H]2O1` [Example 263, N-(3-([(1R,S),(5S,R),(6R,S)]-3-amino-5-(difluoromethyl)-2-oxa-4-azabicyclo[4.1.0]hept-3-en-5-yl)phenyl)-5-chloropicolinamide], the pIC50 is 6.54.

As for `NC1=N[C@@](c2cccc(NC(=O)c3ccc(Cl)cn3)c2)(C(F)F)[C@H]2C[C@H]2O1` [Example 265, N-(3-((1R,5S,6R)-3-amino-5-(difluoromethyl)-2-oxa-4-azabicyclo[4.1.0]hept-3-en-5-yl)phenyl)-5-chloropicolinamide], the pIC50 is 7.55.

For `NC1=N[C@@](CF)(c2cc(NC(=O)c3ccc(Cl)cn3)ccc2Cl)[C@@H]2C[C@@H]2O1` [Example 271, N-(3-((1S,5R,6S)-3-amino-5-(fluoromethyl)-2-oxa-4-azabicyclo[4.1.0]hept-3-en-5-yl)-4-chlorophenyl)-5-chloropicolinamide], the pIC50 is 5.63.

As for `N#Cc1cnc2c(Nc3ccc(Cl)c([C@]4(C(F)F)N=C(N)O[C@H]5C[C@H]54)c3)ncc(F)c2c1` [Example 349, 8-((3-((1(R,S),5(S,R),6(R,S))-3-amino-5-(difluoromethyl)-2-oxa-4-azabicyclo[4.1.0]hept-3-en-5-yl)-4-chlorophenyl)amino)-5-fluoro-1,7-naphthyridine-3-carbonitrile], the pIC50 was 6.65.

As to `N#Cc1cnc2c(Nc3ccc(Cl)c([C@]4(C(F)F)N=C(N)O[C@H]5C[C@H]54)c3)ncc(F)c2c1` [Example 351, 8-((3-((1S,5R,6S)-3-amino-5-(difluoromethyl)-2-oxa-4-azabicyclo[4.1.0]hept-3-en-5-yl)-4-chlorophenyl)amino)-5-fluoro-1,7-naphthyridine-3-carbonitrile], the pIC50 is 5.60.

Turning to `COc1cnc2c(Nc3cc(Cl)c(F)c([C@@]4(CF)N=C(N)O[C@@H]5C[C@@H]54)c3)nccc2n1` [Example 356, (1R,5S,6R)-5-(3-chloro-2-fluoro-5-((2-methoxypyrido[3,4-b]pyrazin-5-yl)amino)phenyl)-5-(fluoromethyl)-2-oxa-4-azabicyclo[4.1.0]hept-3-en-3-amine], the pIC50 was 7.31.

Consider `N#Cc1cnc2c(c1)CC[C@@H]2Nc1ccc(F)c([C@@]2(C(F)F)N=C(N)O[C@@H]3C[C@@H]32)c1` [Example 404], for which the pIC50 was 6.60.

Regarding `NC1=N[C@](c2cc(-c3nc4ccc(Cl)cc4o3)ccc2F)(C(F)F)[C@@H]2C[C@@H]2O1` [Example 425, (1S,5R,6S)-5-(5-(6-chlorobenzo[d]oxazol-2-yl)-2-fluorophenyl)-5-(difluoromethyl)-2-oxa-4-azabicyclo[4.1.0]hept-3-en-3-amine], the pIC50 is 6.23.

Consider `NC1=N[C@@](c2cc(-c3nc4ccc(Cl)cc4o3)ccc2F)(C(F)F)[C@H]2C[C@H]2O1` [Example 426, (1R,5S,6R)-5-(5-(6-chlorobenzo[d]oxazol-2-yl)-2-fluorophenyl)-5-(difluoromethyl)-2-oxa-4-azabicyclo[4.1.0]hept-3-en-3-amine], for which the pIC50 is 5.51.

Regarding `NC1=N[C@@](c2cc(-n3cc(C#CC4CC4)cn3)ccc2F)(C(F)F)[C@H]2C[C@H]2O1` [Example 435], the pIC50 is 5.32.

On to `CNc1cnc(C(=O)Nc2ccc(F)c([C@@]3(C(F)F)N=C(N)O[C@@H]4C[C@@H]43)c2)nc1` [Example 439, N-(3-((1R,5S,6R)-3-amino-5-(difluoromethyl)-2-oxa-4-azabicyclo[4.1.0]hept-3-en-5-yl)-4-fluorophenyl)-5-(methylamino)pyrimidine-2-carboxamide dihydrochloride], for which the pIC50 was 6.49.

On to `Cc1cc(NC(=O)c2ccc(Cl)cc2CF)cc([C@@]2(C(F)F)N=C(N)O[C@@H]3C[C@@H]32)c1F` [Example 444, N-(3-((1R,5S,6R)-3-amino-5-(difluoromethyl)-2-oxa-4-azabicyclo[4.1.0]hept-3-en-5-yl)-4-fluoro-5-methylphenyl)-4-chloro-2-(fluoromethyl)benzamide], for which the pIC50 is 7.50.
